Measured values taken from patent publication US4029731A, “Aminophenyltetralin compounds” (Pfizer Inc., priority 1976, dated 1977).
Where a name gives a salt, the structure may show the parent alone.

Test system: norepinephrine uptake into both rat heart and rat brain; reserpine hypothermia in mice
Assay: Antidepressant activity (norepinephrine uptake into rat heart and rat brain in vivo; reversal of reserpine hypothermia in mice)
Details: for degree of antidepressant activity: base and hydrochloride acid addition salts
Description: The activity of the compounds of the present invention as antidepressants is determined by a study of their ability to supress norepinephrine uptake into both rat heart and rat brain (in vivo), together with a determination of their ability to bring about a reversal of reserpine hypothermia in mice.

CN[C@@H]1CC[C@@H](c2ccccc2)c2ccccc21 (relative stereo) [trans-dl-N-methyl-4-phenyl-1,2,3,4-tetrahydro-1-naphthylamine]
degree of antidepressant activity: markedly high degree of antidepressant activity

CN[C@@H]1CC[C@@H](c2ccccc2)c2ccccc21 [Trans-d-isomer of Example III, trans-d-N-methyl-4-phenyl-1,2,3,4-tetrahydro-1-naphthylamine as the hydrochloride]
drug potency as antidepressant compared with imipramine and desmethylimipramine (norepinephrine uptake into rat heart and rat brain in vivo, reserpine hypothermia in mice): roughly equivalent to both impramine and desmethylimpramine

CN[C@@H]1CC[C@@H](c2ccccc2)c2ccccc21 [trans-d-N-methyl-4-phenyl-1,2,3,4-tetrahydro-1-naphthylamine]
degree of antidepressant activity: markedly high degree of antidepressant activity
